In PMC5800871 (European journal of medicinal chemistry, 2017):

Columns and labels:
[1] = system: phosphorylation of ALK, EGFR, Akt and ERK in DFCI032 cells; experiment: Western blotting of ALK/EGFR signaling in DFCI032 cells; assay type: cell-based; conditions: result in words
panel of 468 kinases = experiment: KINOMEscan kinome selectivity profiling; assay type: binding

binding to ALK and EGFR in KINOMEscan (panel of 468 kinases; 1 μM, result in words): lost affinity for EGFR proteins
SMILES: Cc1cc(Nc2ncc(Cl)c(Nc3ccccc3S(=O)(=O)C(C)C)n2)c(OC(C)C)cc1C1CCNCC1 [Ceritinib]
effects on phosphorylation of ALK, EGFR, Akt and ERK [1]: suppressed phosphorylation of their primary target respectively but were not able to sufficiently reduce phosphorylation of Akt and ERK
S-score(1) (panel of 468 kinases; KINOMEscan at 1 μM, 7c 468 kinases, TAE684 353 kinases): 0.02
